Measured values: ChEMBL document CHEMBL1144225, “Synthesis and anticonvulsant activities of N-benzyl (2R)-2-acetamido-3-oxysubstituted propionamide derivatives” (Bioorg Med Chem, 2008)

Test system: Mus musculus
Assay: Neurotoxicity in ip dosed albino mouse by rotarod test
Format: toxicity, organism-based
Details: in vivo
Summary of the method: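 Mice dosed intraperitoneally and tested on the rotorod for neurologic toxicity. Dose-effect data taken at the time of peak effect, given in hours.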

Work on `CCCC(CCC)C(=O)[O-].[Na+]` [VALPROATE SODIUM] yielded a TD50 of 430 mg/kg.
